From PubChem BioAssay
Sfp inh = blocks B. subtilis Sfp PPTase activity; Biochemical Sfp PPTase activity, qHTS; Q9F4F7; Potency, µM, for inactives: max response, negative = inhibition, most hits filed as inhibitors; hit rate 3.5% among 310,000; active = well fitted inhibition curve with a large enough effect; inconclusive = small, poorly fitted or top-dose-only effect, or another doubt; inactive = no such curve, though single readings can be large or run the other way;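 also: the enzyme is Sfp with the accession as filed and its product quenches rhodamine fluorescence; potency is read from the fitted curve at half-maximal effect; 0% = enzyme reaction without inhibitor and -100% = no enzyme wells; top concentration of the series not given in the record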
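After 15 min at room temperature with compound, 15 nM Sfp received 5 uM rhodamine-CoA plus 12.5 uM BHQ-2-ybbR (50 mM Hepes pH 7.6, 10 mM MgCl2). Rate came from the fluorescence difference over 30 min, ex 525/em 598 nm.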
miR-21 reporter = miR-21 reporter, rising signal | HeLa miR-21 FLuc reporter, luciferase, 48 h | Potency, µM (top dose mostly 38.3 µM), inactives show at the highest dose reporter change, positive = more light | 340,000 tested, under 10 active | AID 2288; active = well fitted rising curve with a large enough effect; inconclusive = small, poorly fitted or top-dose-only effect; inactive = no such curve, though single readings can be large or run the other way;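 note: % of control where 0% means no effect; miR-21 action dims this reporter so a rising signal means less miR-21 action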
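Using DMEM plus 10% FBS, HeLa miR-21-FLuc cells are incubated with test compounds (final up to about 40uM) for 48 hours; firefly luciferase signal is then imaged following reagent-mediated lysis.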
Lamin A splicing = changes lamin A minigene splicing in HeLa cells. HeLa LMNA splicing GFP/RFP minigene ratio, 48 h. Potency, µM (highest dose often 46.1 µM), inactives show top-dose ratio change, negative = inhibition, actives largely listed as inhibitors. 200,000 tested, 0.01% active; active = well fitted inhibition curve with a large enough effect in the signal ratio, with a control signal flat, not every such curve was filed as active; inconclusive = small, poorly fitted or top-dose-only effect, or effect the other way, or a change in a side signal; the % refers to the signal ratio; also: potency is read from the fitted curve at half-maximal effect; % is scaled to controls: 0 for no effect and ±100 for the full control effect
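S3 HeLa cells stably expressing lamin A-EGFP splicing minigene plus DsRed2, 600 cells/well, 48 h compound exposure at 37C. Laser-scanning cytometry; analysed as GFP (500-530 nm)/RFP (575-640 nm) total intensity ratio; 0.5% DMSO vehicle.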
G9a inh = G9a (human) methyltransferase inhibition | Q96KQ7 | G9a H3K9 monomethylation, AlphaScreen, 2 h | Potency, µM (doses to about 102 µM), for inactives: top-dose activity, negative = inhibition, most hits filed as inhibitors | 350,000 tested, 8.8% active | AID 504332; also: potency is read from the fitted curve at half-maximal effect; % is scaled to controls: 0 for no effect and ±100 for the full control effect; nearly all actives have a fitted effect of over 75% in size
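Step 1: enzyme (final 20 nM) with compound, 15 min RT. Step 2: substrate peptide 500 nM and SAM 20 uM, 2 h RT. Step 3: anti-H3K9me1 antibody and AlphaScreen beads, 10 min, then plate read.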
JMJD2E inh = JMJD2E (human) inhibition | Potency, µM (titrated, usually from 57.1 µM), for the others: top-dose activity change, negative = inhibition, actives largely listed as inhibitors | AID 2147 | 230,000 tested, 1.6% active | JMJD2E catalytic domain, FDH-coupled NADH fluorescence (FDH is formaldehyde dehydrogenase) | B2RXH2; active = well fitted inhibition curve with a large enough effect, not every such curve was filed as active; inconclusive = small, poorly fitted or top-dose-only effect, or another doubt; inactive = no such curve, though single readings can be large or run the other way;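 also: potency is read from the fitted curve at half-maximal effect; 0% = wells with enzyme and -100% = buffer wells without enzyme; nearly all actives have a fitted effect of over 50% in size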
ALDH1A1 block = blocks purified human ALDH1A1 activity; P00352; 220,000 tested, 7.3% active; AID 1030; Purified ALDH1A1, NADH fluorescence, propionaldehyde substrate; Potency, µM (highest dose often 75.3 µM), for the others: top-dose activity, negative = inhibition, actives largely listed as inhibitors; active = well fitted inhibition curve with a large enough effect, not every such curve was filed as active; inconclusive = small, poorly fitted or top-dose-only effect, or another doubt; inactive = no such curve, though single readings can be large or run the other way;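 also: potency is read from the fitted curve at half-maximal effect; plate controls were no enzyme wells and a reference inhibitor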
Starred values were filed as active, the others as inactive; u = inconclusive; x = no result given; [ ] = remark or other dose. Rows were chosen to be rich in hits. Some 13% of all compounds tested hit in one or more screens of this group. Unless noted, calls follow the shape of the dose curve; as a rule, active = well fitted curve in the direction sought with a large enough effect; inconclusive = small, poorly fitted or top-dose-only effect, or another doubt; inactive = no such curve, though single readings can be large; an effect the other way counts as inactive or inconclusive.

Key to letters – A = Sfp inh; B = miR-21 reporter; C = Lamin A splicing; D = G9a inh; E = JMJD2E inh; F = ALDH1A1 block
> O=C(O)CC1NC(=S)N(c2ccccc2)C1=O (stereo not drawn)
  A = -8% | B = -3% | C = -10% | D = u | E = 0% | F = 5%
> COc1ccc(C2CC(C)(c3ccc(OC)cc3)Nc3ccccc3N2)cc1 (stereo not drawn)
  A = 22% | B = -68% | C = x | D = x | E = u | F = x
> CCOC(=O)CSc1nc2sc3c(c2c(=O)n1Cc1ccccc1)CCC(C(C)(C)C)C3 (stereo not drawn)
  A = x | B = -1% | C = x | D = -5%[59 µM] | E = x | F = x
> CCOc1ccc(CCNC(=O)Cn2nc(C)c3c(C)n(-c4ccccc4)nc3c2=O)cc1OCC
  A = 22% | B = 1% | C = x | D = -9% | E = x | F = x
> O=C(NCc1c(Cl)cccc1Oc1ccccc1)c1ccccc1
  A = 2% | B = -3% | C = u | D = 3% | E = -1% | F = 3%
> Cc1ccc(S(=O)(=O)N2CCN(C(=O)CNC(=O)c3ccc(Br)o3)CC2)cc1
  A = x | B = x | C = x | D = -7% | E = x | F = x
> CCc1ccccc1NC(=O)Cn1c(C(=O)OC)cc2oc(C)cc21
  A = x | B = -1% | C = x | D = -8%[59 µM] | E = x | F = x
> COc1ccc2c(c1)C(=NNc1ccc(C(=O)O)cc1)c1cc(OC)ccc1-2
  A = -18% | B = -2% | C = x | D = u | E = x | F = x
> C/C(=N\NC(=O)c1ccc(Cl)c(Cl)c1)c1ccc(Br)s1
  A = 1% | B = -3% | C = -15% | D = 27%[59 µM] | E = 3% | F = -10%
> C/C(=N\Nc1ccc(C(=O)O)cc1)c1ccc(Cl)s1
  A = 10µM* | B = -42% | C = x | D = u | E = x | F = x
> COc1ccc(/C(C)=N/Nc2ccc(C(=O)O)cc2)c(OC)c1
  A = 1% | B = -46% | C = 3% | D = 1.6µM* | E = -5% | F = -3%
> C/C(=N\Nc1ccc(Cl)c(C(=O)O)c1)c1ccc(Br)s1
  A = -24% | B = -51% | C = x | D = 35µM* | E = x | F = x
> C/C(=N\Nc1ccc(C(=O)O)cc1)c1ccc(Br)cc1
  A = -27% | B = 2% | C = -2%[46 µM] | D = x | E = -6% | F = 6%
> COc1ccc(O[C@H]2C=C[C@@H](c3ccccc3)O[C@H]2CO/N=C\C[C@@H]2C=C[C@H](OC(C)=O)[C@H](COC(C)=O)O2)cc1
  A = 12% | B = x | C = x | D = x | E = x | F = u
> Cc1coc2cc3oc(=O)c(CC(=O)NCc4ccc(F)cc4)c(C)c3cc12
  A = x | B = u | C = x | D = 9%[59 µM] | E = x | F = x
> COc1ccc(N2CCN(C(c3ccccc3)c3sc4nc(-c5ccco5)nn4c3O)CC2)cc1 (stereo not drawn)
  A = x | B = 29% | C = -1%[46 µM] | D = u | E = x | F = x
> C[C@H]1OC(OC2C(O)[C@@H](O)C(OC3C(O)[C@@H](O)C(O)O[C@@H]3CO)O[C@@H]2CO)[C@H](O)C(O)C1N[C@H]1C=C(CO)[C@@H](O)[C@H](O)C1O (stereo partly drawn)
  A = 10% | B = x | C = -3% | D = 37%[59 µM] | E = x | F = 9%
> O=C(Cc1cccs1)Nc1ccc(-c2nnn(CC(=O)N3CCOCC3)n2)cc1
  A = -11% | B = -15% | C = -4% | D = 50µM* | E = -3% | F = -6%
> COc1ccccc1C(=O)Nc1ccc(-c2nnn(CC(=O)N3CCN(C(=O)c4ccco4)CC3)n2)cc1
  A = 12% | B = -11% | C = x | D = u | E = 1% | F = u
> O=C(Nc1ccc(-c2nnn(CC(=O)N3CCN(C(=O)c4ccco4)CC3)n2)cc1)c1ccccc1F
  A = -3% | B = -24% | C = x | D = 56µM* | E = 12% | F = u
> N#CC1=C(S)N(c2ccccc2)C2(CCCCC2)NC1=O
  A = 28µM* | B = 10% | C = -9% | D = u | E = -1% | F = 8%
> O=C1NC2(CCCCC2)N=C1c1ccc(F)cc1
  A = 15% | B = -10% | C = -1% | D = 8% | E = 6% | F = 5%
> N#CC1=C(S)N(c2ccc(F)cc2)C2(CCCCC2)NC1=O
  A = 20µM* | B = 3% | C = x | D = 35µM* | E = -5% | F = -2%
> O=C1c2ccccc2NC2(CCCCC2)N1c1ccc(O)cc1
  A = 17% | B = -19% | C = -14% | D = 2%[59 µM] | E = u | F = u
> COc1ccc(/C=C/c2onc(C)c2S(=O)(=O)N2CCC(C(=O)N3CCCCCC3)CC2)cc1
  A = -9% | B = 12% | C = x | D = 3% | E = x | F = x
> COc1ccc(C(C(=O)NC2CCCCC2)N(Cc2cccnc2)C(=O)c2snc(C(N)=O)c2N)cc1 (stereo not drawn)
  A = 15% | B = -2% | C = x | D = 12%[59 µM] | E = x | F = x
> CCOC(=O)c1nc2cc3n(c(CC(C)C)c-2c1C)CC(C)=C3C
  A = -15% | B = -5% | C = 5% | D = 3.2µM* | E = u | F = u
> CCc1ccc(NC(=O)CN2C(=O)C(c3ccc(F)cc3)=NC2(C)C)cc1
  A = x | B = -1% | C = x | D = -4%[59 µM] | E = x | F = x

As entered above.
Sfp inh result of `O=C1NC2(CCCCC2)N=C1c1ccc(F)cc1` reads 15%
G9a inh result of `Cc1ccc(S(=O)(=O)N2CCN(C(=O)CNC(=O)c3ccc(Br)o3)CC2)cc1` reads -7%

3 of the entries above in order of the ALDH1A1 block value, largest number first:
SMILES,ALDH1A1 block
C[C@H]1OC(OC2C(O)[C@@H](O)C(OC3C(O)[C@@H](O)C(O)O[C@@H]3CO)O[C@@H]2CO)[C@H](O)C(O)C1N[C@H]1C=C(CO)[C@@H](O)[C@H](O)C1O (stereo partly drawn),9%
O=C(O)CC1NC(=S)N(c2ccccc2)C1=O (stereo not drawn),5%
O=C(Cc1cccs1)Nc1ccc(-c2nnn(CC(=O)N3CCOCC3)n2)cc1,-6%
